Test results reported in patent US7416848B2, “DNA encoding SNORF25 receptor” (H. Lundbeck A/S, priority 1999, dated 2008).

Amino acid sequences for entries named in this document (tags omitted).
UniProt Q8TDV5, whole entry: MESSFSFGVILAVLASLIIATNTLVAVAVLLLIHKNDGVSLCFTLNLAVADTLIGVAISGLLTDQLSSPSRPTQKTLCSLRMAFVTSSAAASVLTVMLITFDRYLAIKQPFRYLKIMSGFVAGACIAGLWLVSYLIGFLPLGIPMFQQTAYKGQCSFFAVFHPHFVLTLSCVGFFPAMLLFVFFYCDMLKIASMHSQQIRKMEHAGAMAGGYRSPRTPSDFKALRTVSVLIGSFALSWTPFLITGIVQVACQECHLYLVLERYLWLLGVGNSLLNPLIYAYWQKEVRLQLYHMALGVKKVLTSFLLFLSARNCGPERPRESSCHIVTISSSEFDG

Assays:
SNORF25 [1] = target: T1, SNORF25 (Homo sapiens, UniProt Q8TDV5); experiment: Stimulation of cAMP release by CHO cells stably expressing hSNORF25 receptors; format: cell-based
Method: CHO cells are grown on 150 mm plates in HAM's F-12 medium with supplements (10% bovine calf serum, 4 mM L-glutamine and 100 units/ml penicillin/100 μg/ml streptomycin) at 37° C., 5% CO2. Stock plates of CHO cells are trypsinized and split 1:8 every 3–4 days.
Heterologous DNA can be stably incorporated into host cells, causing the cell to perpetually express a foreign protein. Methods for the delivery of the DNA into the cell are similar to those described above for transient expression but require the co-transfection of an ancillary gene to confer drug resistance on the targeted host cell. The ensuing drug resistance can be exploited to select and maintain cells that have taken up the DNA. […]
The receptor-mediated stimulation or inhibition of cyclic AMP (cAMP) formation may be assayed in cells expressing the receptors. […] The plates are stored at 4° C. for 15 min, and the cAMP content in the stopping solution is measured by radioimmunoassay. Radioactivity may be quantified using a gamma counter equipped with data reduction software. […]
According to a second method, cells are washed 2 times with HEPES buffered saline, as described above, and incubated overnight. […] The plates are stored at 4° C. for 15 min, and the cAMP content in the stopping solution is measured by radioimmunoassay. Radioactivity may be quantified using a gamma counter equipped with data reduction software. […]

SNORF25 [2] = target: T1, SNORF25; experiment: CFTR Cl- currents in Xenopus oocytes co-injected with SNORF25 and CFTR mRNA; conditions: 10 μM; oocytes with SNORF25 and CFTR mRNA (FIG. 12A)

**Q.** For `CCCCCCCCCCCCCCCCCCOC[C@H](COP(=O)([O-])OCC[N+](C)(C)C)OC(C)=O`, which “% of PAF(C18) Response” value (SNORF25 [1]; maximum response as % of maximum response produced by PAF(C18) (taken as 100%)) is on record?
**A.** 100%

**Q.** And the EC50 (SNORF25 [1]; mean ± S.E.M., at least 3 experiments, CHO cells stably expressing hSNORF25)?
**A.** 537 nM

**Q.** And the CFTR current response (SNORF25 [2])?
**A.** robust responses
